This experiment deals with Xenopus laevis histone H2B 1.1 (in the NCP crystal) (Xenopus laevis, UniProt P02281 1-126). Briefly: crystal structure. The note with it: both partners purified.

B1: IE1-CTD peptide (chromatin-tethering domain of hCMV IE1, a.a. 476–491) (peptide)
peptide: GGKSTHPMVTRSKADQ
For the molecule B1, the binding result is recorded as “binds”.
